Screening results (PubChem BioAssay)
Shown are actives, neighbours in structure and some others; about 1.5% of the full set was active somewhere.
eIF4H FP inh: human eIF4H binding inhibitors, primary screen, translation initiation inhibitor project, biochemical, uHTS, fluorescence polarization | inhibition, % at 35 µM | Eukaryotic translation initiation factor 4H (Homo sapiens), Q15056 | AID 2012, 2009 | eIF4H fluorescence polarization binding assay | 290,000 tested, 0.94% active;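 further: calls also rest on retests at 20 µM and on dose response follow-up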
Yeast UUG start: modulators of yeast start codon fidelity, primary screen, whole organism, S. cerevisiae, single point, plate reader | activity score, % at 18.7 µM | 350,000 tested, 0.13% active | S. cerevisiae UUG-firefly luciferase reporter, luminescence/redox ratio;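 active means replicate mean at a twofold rise or more, about +100% in these data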;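 further: firefly luciferase made from a UUG start codon reports start codon fidelity; reporter light over untreated wells divided by growth signal over untreated wells; some hits fall short of that in this replicate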
Pemphigus Ab inh: inhibitors of pemphigus antibody binding to DSG3, primary screen, biochemical, bead-based, flow cytometry, scFv-GFP | Desmoglein-3 (Homo sapiens), P32926 | DSG3-coupled beads, scFv-anti-DSG3-GFP binding; stronger effect = lower value | binding (percent of control), % at 10 µM | 310,000 tested, 0.48% active;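 active means binding more than 3 SD below its plate's average and above zero; inconclusive means below that plate limit but binding exactly zero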;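 further: hits lower antibody fragment binding to DSG3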
MLLE-PAM2 inh: inhibitors of PABP1 MLLE–PAM2 peptide binding, primary screen, biochemical, fluorescence polarization, FITC-PAM2, GST-MLLE. inhibition, % at 20 µM. AID 588489, 2011. 360,000 tested, 0.36% active. Polyadenylate-binding protein 1 (Homo sapiens), P11940; in the data active means inhibition above about 35%, passing the limit was not always enough;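 further: plate controls were DMSO wells with GST-MLLE for no effect and wells lacking GST-MLLE protein for full effect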
PABP polyA inh: PABP poly(A) RNA binding inhibitors, primary screen, biochemical, fluorescence polarization, uHTS; Polyadenylate-binding protein 1 (Homo sapiens), P11940; calls only at 35 µM; 290,000 tested, 1% active; AID 2014, 2009;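 further: calls also rest on retests at 20 µM and on dose response follow-up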
Active calls of the source: *; i = inactive; u = inconclusive; x = no result; + = active, no number. Unless noted, how the calls were made is not given here.

By UniProt entry, the sequences of proteins in these tests, tags left out.
Desmoglein-3 (Homo sapiens), P32926, UniProt P32926, whole entry, looked up: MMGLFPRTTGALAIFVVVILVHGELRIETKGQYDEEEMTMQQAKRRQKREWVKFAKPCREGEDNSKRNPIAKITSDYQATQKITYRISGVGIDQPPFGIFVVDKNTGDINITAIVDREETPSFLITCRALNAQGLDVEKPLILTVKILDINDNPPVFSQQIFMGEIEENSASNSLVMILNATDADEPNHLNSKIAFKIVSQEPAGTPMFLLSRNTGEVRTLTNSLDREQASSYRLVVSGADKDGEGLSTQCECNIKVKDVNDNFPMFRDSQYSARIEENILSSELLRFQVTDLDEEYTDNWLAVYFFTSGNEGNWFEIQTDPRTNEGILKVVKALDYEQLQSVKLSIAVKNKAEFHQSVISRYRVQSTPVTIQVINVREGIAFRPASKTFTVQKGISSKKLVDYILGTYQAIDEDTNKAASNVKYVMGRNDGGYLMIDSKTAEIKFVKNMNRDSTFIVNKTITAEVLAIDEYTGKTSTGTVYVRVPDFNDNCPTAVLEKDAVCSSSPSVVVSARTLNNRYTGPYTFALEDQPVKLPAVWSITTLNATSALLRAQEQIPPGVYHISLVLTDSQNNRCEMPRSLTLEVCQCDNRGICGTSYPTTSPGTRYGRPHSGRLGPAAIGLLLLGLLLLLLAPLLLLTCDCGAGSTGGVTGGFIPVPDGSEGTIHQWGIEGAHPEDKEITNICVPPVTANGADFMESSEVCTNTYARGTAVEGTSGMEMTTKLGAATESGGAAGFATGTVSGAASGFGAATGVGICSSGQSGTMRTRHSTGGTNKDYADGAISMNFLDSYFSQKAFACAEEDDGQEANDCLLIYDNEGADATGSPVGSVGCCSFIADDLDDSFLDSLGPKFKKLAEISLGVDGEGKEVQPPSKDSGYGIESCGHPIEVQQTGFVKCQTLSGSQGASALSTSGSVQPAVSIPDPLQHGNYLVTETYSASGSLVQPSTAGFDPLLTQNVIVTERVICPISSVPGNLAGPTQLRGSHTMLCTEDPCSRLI
Polyadenylate-binding protein 1 (Homo sapiens), P11940, UniProt P11940, whole entry, looked up: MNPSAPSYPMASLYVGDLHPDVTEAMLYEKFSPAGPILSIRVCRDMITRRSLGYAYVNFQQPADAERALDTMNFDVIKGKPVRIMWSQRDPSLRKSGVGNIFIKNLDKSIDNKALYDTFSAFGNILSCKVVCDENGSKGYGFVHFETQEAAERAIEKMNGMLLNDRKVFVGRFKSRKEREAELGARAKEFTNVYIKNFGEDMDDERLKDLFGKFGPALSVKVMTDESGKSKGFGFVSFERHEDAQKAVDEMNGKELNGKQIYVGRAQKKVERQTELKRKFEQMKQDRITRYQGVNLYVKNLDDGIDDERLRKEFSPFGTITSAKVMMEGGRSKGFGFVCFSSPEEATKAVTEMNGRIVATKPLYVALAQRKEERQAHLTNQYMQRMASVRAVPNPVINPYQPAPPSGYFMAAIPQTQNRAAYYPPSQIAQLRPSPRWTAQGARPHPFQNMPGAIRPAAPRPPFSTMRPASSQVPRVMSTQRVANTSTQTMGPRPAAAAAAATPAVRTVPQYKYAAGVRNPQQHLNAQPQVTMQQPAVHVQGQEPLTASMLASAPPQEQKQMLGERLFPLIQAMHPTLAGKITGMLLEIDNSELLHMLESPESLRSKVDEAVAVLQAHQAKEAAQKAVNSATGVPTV

Order of results: Yeast UUG start	eIF4H FP inh	PABP polyA inh	Pemphigus Ab inh	MLLE-PAM2 inh
> Cc1nc(S/C(=C/c2ccc(-c3cc(Cl)ccc3C)o2)C(=O)O)n[nH]1
  x	60	+	98	-12
> COCCNC(=O)c1ccc(-n2c(SCc3ccncc3)nc3ccccc3c2=O)cc1
  -9	active	+	99	2
> S=C(Nc1ccc(Nc2ccccc2)cc1)Nc1ccccn1
  x	-8	i	106	38*
> C=C(C)CN1C(=O)c2ccccc2C1=O
  -24	57	+	89	-3
> O=C(CN1C(=O)c2ccccc2C1=O)c1ccccc1
  -12	0	i	x	7
> C[C@@H]1CN([C@@H](C)CO)S(=O)(=O)c2ccc(C#CC3CC3)cc2O[C@@H]1CN(C)Cc1ccncc1
  -3	x	x	x	x
> O=C(CCc1ccc(O)c(O)c1)N/N=C/c1cc2c(cc1[N+](=O)[O-])OCO2
  -21	94*	+	91	15
> O=C(CCc1ccc(S(=O)(=O)N2CCOCC2)cc1)N/N=C/c1ccc(O)c(O)c1O
  -19	96*	+	94	33
> O=[N+]([O-])c1ccc(N/N=C/c2ccc(O)c(O)c2O)c(S(=O)(=O)N2CCOCC2)c1
  x	90	+	83	-14
> C[C@@H]1CN([C@@H](C)CO)C(=O)c2cccc(NS(=O)(=O)c3cn(C)cn3)c2O[C@@H]1CN(C)Cc1ccc(-c2ccccc2)cc1
  0	x	x	x	x
> CC(C)C(C(=O)O)N1C(=O)/C(=C/C=C/c2ccco2)SC1=S (configuration not stated)
  x	91*	+	76*	-4
> O=C1/C(=C/c2ccco2)SC(=S)N1c1cccnc1
  -17	92*	+	84	-1
> NN1C(=O)/C(=C\c2ccco2)SC1=S
  -14	106*	+	107	19
> O=C(NN1C(=O)/C(=C/C=C/c2ccco2)SC1=S)c1ccncc1
  -6	84*	+	106	0
> CCOC(=O)CN1C(=O)S/C(=C/c2ccco2)C1=O
  -8	-3	i	118	5

Rewritten with values ahead of the structure: four of the compounds above
Yeast UUG start,eIF4H FP inh,PABP polyA inh,Pemphigus Ab inh,MLLE-PAM2 inh,compound
-17,92*,+,84,-1,O=C1/C(=C/c2ccco2)SC(=S)N1c1cccnc1
-14,106*,+,107,19,NN1C(=O)/C(=C\c2ccco2)SC1=S
-6,84*,+,106,0,O=C(NN1C(=O)/C(=C/C=C/c2ccco2)SC1=S)c1ccncc1
-8,-3,i,118,5,CCOC(=O)CN1C(=O)S/C(=C/c2ccco2)C1=O

Full records, quoted from the list. Order of values: Yeast UUG start	eIF4H FP inh	PABP polyA inh	Pemphigus Ab inh	MLLE-PAM2 inh
O=[N+]([O-])c1ccc(N/N=C/c2ccc(O)c(O)c2O)c(S(=O)(=O)N2CCOCC2)c1 across the screens: x	90	+	83	-14
CCOC(=O)CN1C(=O)S/C(=C/c2ccco2)C1=O across the screens: -8	-3	i	118	5

Next part.
Order of results: Yeast UUG start	eIF4H FP inh	PABP polyA inh	Pemphigus Ab inh	MLLE-PAM2 inh
> COCC#Cc1cnc2c(c1)C(=O)N([C@@H](C)CO)C[C@@H](C)[C@@H](CN(C)C(=O)c1ccc3c(c1)OCO3)O2
  16	x	x	x	x
> C[C@H](CO)N1C[C@H](C)[C@H](CN(C)Cc2cccc(F)c2)Oc2cc(C#CC3CC3)ccc2S1(=O)=O
  1	x	x	x	x
> CC(C)CC#Cc1ccc2c(c1)O[C@@H](CN(C)C(=O)c1cccnc1)[C@@H](C)CN([C@H](C)CO)S2(=O)=O
  -7	x	x	x	x
> CO[C@H]1CN(C)C(=O)c2ccc(NC(=O)C3CC3)cc2OC[C@@H](C)N(CC2CCCC2)C[C@@H]1C
  17	x	x	x	x
> C[C@H](CO)N1C[C@H](C)[C@H](CN(C)C(=O)NC2CCCCC2)OCCCC[C@H](C)Oc2ccc(NC(=O)Nc3ccccc3)cc2C1=O
  -4	x	x	x	x
> O=C1/C(=C/C=C/c2ccco2)SC(=S)N1c1ccc(O)cc1
  x	80*	+	78*	-46
> COc1cccc(/C=C2\SC(=S)N(c3cccnc3)C2=O)c1OC
  x	0	i	103	55*
> O=C1/C(=C\c2ccco2)SC(=S)N1c1ccc(O)cc1
  x	81*	i	98	25
> O=C(O)c1ccc(N2C(=O)/C(=C/C=C/c3ccccc3)SC2=S)cc1
  x	7	i	96	6
> C[C@H]1CN([C@@H](C)CO)C(=O)c2cc(-c3ccccc3)cnc2O[C@@H]1CN(C)C(=O)Cc1cccnc1
  -8	x	x	x	x
> Cc1noc(C)c1NC(=O)Nc1ccc2c(c1)C(=O)N([C@H](C)CO)C[C@@H](C)[C@@H](CN(C)C(=O)NC1CCCCC1)OCCCC[C@@H](C)O2
  19	x	x	x	x
> CN(C)CC(=O)Nc1ccc2c(c1)[C@H]1C[C@@H](CC(=O)NCc3cccc(F)c3)O[C@@H](CO)[C@H]1O2
  3	x	x	x	x
> C[C@H](CO)N1C[C@H](C)[C@H](CN(C)Cc2ccccc2)Oc2ccc(NS(=O)(=O)c3ccc(Cl)cc3)cc2C1=O
  8	x	x	x	x
> Cc1ccccc1-c1nn(-c2ccc(F)cc2F)cc1CNC1CC1
  x	54*	+	100	0
> Cc1ccccc1-c1nn(-c2ccc(F)cc2F)cc1CNCC(C)O (configuration not stated)
  5	0	i	108	-4
> C[C@@H]1CN([C@@H](C)CO)C(=O)c2cccc(NS(=O)(=O)c3ccccc3)c2O[C@@H]1CN(C)CC1CC1
  9	x	x	x	x
> CC(CC(=O)Nc1nnc(C(C)(C)C)s1)c1ccccc1 (configuration not stated)
  -3	-7	i	101	48*
> CCOC(=O)c1cc(-c2ccc(/C=C3/C(=O)NC(=O)C(C#N)=C3C)o2)ccc1Cl
  -1	u	+	104	18
> C[C@@H]1CN([C@@H](C)CO)S(=O)(=O)c2ccc(Br)cc2O[C@H]1CN(C)C(=O)c1cnccn1
  -3	x	x	x	x
> Oc1ccc(Br)cc1C=Nc1ccc2c3c(cccc13)CC2
  x	100*	+	x	12
> Oc1ccc(Cl)cc1C=Nc1ccccc1Br
  x	-4	i	121	-3
> COc1ccc(NC(=O)Nc2cccc3c2O[C@@H](CN(C)C(=O)Nc2cccc4ccccc24)[C@H](C)CN([C@H](C)CO)C3=O)cc1
  -3	x	x	x	x
> COc1ccc2[nH]c3nc(SCC(=O)NNC(=O)c4ccc(OC)c(OC)c4)nnc3c2c1
  -15	-2	i	15*	-7
> O=C(CSC1=Nc2ccccc2C2=NC(CC(=O)NC3CCCCC3)C(=O)N12)NCc1ccco1 (configuration not stated)
  0	u	u	107	49*
> O=C(C[C@@H]1CC[C@H](NC(=O)c2cccnc2)[C@H](CO)O1)NCCN1CCCCC1
  -2	x	x	x	x
> CCN(CCCNC(=O)C1CCC(=O)N1Cc1ccc(C)cc1)c1cccc(C)c1 (configuration not stated)
  -1	-1	i	107	-8
> CCN(CCCNC(=O)C1CCC(=O)N1Cc1ccccc1Cl)c1cccc(C)c1 (configuration not stated)
  1	-2	i	78*	-4
> Nc1nc(N2CCN(Cc3ccccc3)CC2)n[nH]1
  -32	-15	i	79*	0
> Nc1nc(N2CCN(C(c3ccccc3)c3ccccc3)CC2)n[nH]1
  x	-5	i	99	-2
> O=C1c2ccccc2-c2onc3c(Oc4ccccc4)cc(O)c1c23
  x	85*	+	x	x
> O=c1cc(O)c(-c2ccc(Cl)cc2)c(Cl)[nH]1
  x	-6	i	99	6
> O=c1cc(O)c(-c2ccc(Cl)c(Cl)c2)c(Cl)[nH]1
  -11	82*	+	89	-5
> CCOc1ccccc1NC(=O)CCS(=O)(=O)c1ccc(Br)cc1
  -14	84*	+	101	9
> CCc1ccccc1NC(=O)CCS(=O)(=O)c1ccc(Br)cc1
  -14	33	i	102	2
